Test results as given in patent US8975264B2, “Compound acting as a cannabinoid receptor-1 inhibitor” (Amorepacific Corporation, priority 2010, dated 2015).

Chains of the proteins cited; added tags and fusions are not shown.
UniProt P21554, whole entry: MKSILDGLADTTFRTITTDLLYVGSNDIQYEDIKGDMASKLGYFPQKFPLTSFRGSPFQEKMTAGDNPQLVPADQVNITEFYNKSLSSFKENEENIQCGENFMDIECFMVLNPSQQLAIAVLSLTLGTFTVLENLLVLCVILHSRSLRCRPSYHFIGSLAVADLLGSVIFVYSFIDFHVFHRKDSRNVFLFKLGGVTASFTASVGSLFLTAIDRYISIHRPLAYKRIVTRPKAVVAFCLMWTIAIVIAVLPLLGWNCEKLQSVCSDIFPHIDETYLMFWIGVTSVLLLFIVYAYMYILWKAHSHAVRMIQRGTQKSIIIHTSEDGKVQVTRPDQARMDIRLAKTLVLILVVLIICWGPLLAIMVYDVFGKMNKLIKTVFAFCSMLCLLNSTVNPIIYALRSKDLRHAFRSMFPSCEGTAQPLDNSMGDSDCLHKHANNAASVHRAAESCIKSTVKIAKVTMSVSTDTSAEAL

These molecules were tested against human CB1 (cannabinoid receptor 1) (Homo sapiens, UniProt P21554) (assay: CB1 receptor inhibition effect: calcium ion influx assay (Fluo-4 NW) in Chem-1 cells after 1 μM R-(+)-WIN55212-2). Details: calcium ion influx in Chem-1 cells expressing human CB1, 1 μM R-(+)-WIN55212-2.
Protocol: When cells in which the cannabinoid receptor 1 (CB1) is stably expressed are treated with a CB1 receptor agonist, the CB1 receptor is activated and influx of calcium ions into the cells increases. CB1 receptor inhibition effect of a test compound can be evaluated by measuring the degree of calcium influx inhibition after treating with the test compound.
First, Chem-1 cells (Chemicon International, #HTS019C) in which human CB1 cDNA is expressed stably were seeded onto a 96-well cell culture plate at a density of ˜50,000 cells/well and incubated overnight in a 5% CO2 incubator at 37° C. The next day, the culture medium was discarded and the cells were cautiously washed once using an assay buffer (HBSS containing 20 mM HEPES and 2.5 mM probenecid) with 200 μL/well. Calcium ion influx was measured using an assay kit (Fluo-4 NW calcium assay kit: Molecular Probes™, #F36206) according to the manufacturer's instructions. The compounds of Examples of desired concentration to be measured were comprised to 0.5% DMSO. For control, only 0.5% DMSO was used without the compounds of Examples. Reaction time was 10 minutes. After treating the Chem-1 cells stably expressing the CB1 receptor with 1 μM R-(+)-WIN55212-2 (Sigma, #W102), a CB1 receptor agonist, calcium ion (Ca^2+) flux induced thereby was measured for 80 seconds using Flex Station 3 (Molecular Device, USA).
The difference in calcium ion concentration of the cells treated with the compounds of Examples or those treated with 1 μM R-(+)-WIN55212-2 was obtained from the difference of the maximum and minimum values during the 80 seconds. Then, % inhibition of the compounds for the CB1 receptor was calculated using the following equation. % inhibition={1−(ΔRFUcompound−ΔRFUBlank)/(ΔRFUControl−ΔRFUBlank)}×100 [Equation]
ΔRFU: maximum relative fluorescence units−minimum relative fluorescence units
ΔRFUCompound: difference in maximum and minimum RFUs in the well where the compounds of Examples dissolved in DMSO to a final concentration of 0.5% and 1 μM R-(+)-WIN55212-2 dissolved in DMSO to a final concentration of 0.5% were added
ΔRFUBlank: difference in maximum and minimum RFUs in the well to which only 1% DMSO was added
ΔRFUControl: difference in maximum and minimum RFUs in the well where 0.5% DMSO and 1 μM R-(+)-WIN55212-2 dissolved in DMSO to a final concentration of 0.5% were added
`COc1cccc(-c2cc(N3CCC[C@H]3CO)nc3c(-c4ccc5c(c4)OCO5)c(C)nn23)c1` was tested, and the IC50 was 300 nM.
`CCc1ccc(-c2c(C)nn3c(-c4cccc(C)c4)cc(N4CCC[C@H]4CO)nc23)cc1` gave an IC50 of 320 nM.
`CCOCc1ccc(-c2c(C)nn3c(-c4cccc(C(F)(F)F)c4)cc(N4CCC[C@H]4CO)nc23)cc1` was tested, and the IC50 was 230 nM.
With `CCCc1ccc(-c2c(C)nn3c(-c4cccc(Cl)c4)cc(N4CCC[C@H]4CO)nc23)cc1` the IC50 was 350 nM.
`CSc1cccc(-c2c(C)nn3c(-c4cccc(C(F)(F)F)c4)cc(N4CCC[C@H]4CO)nc23)c1` showed an IC50 of 62 nM.
